Key:
[1] = system: TAOK1 (neojunction transcript); assay: In vivo PD RT-qPCR in NCI-N87 tumors, TAOK1; parameters: species or system CB17-SCID mice; conditions: 10 mg/kg IV single dose, NCI-N87 xenograft, versus vehicle
Method: (§1) Single cell suspension of 5 million cells per 0.1 mL (50% ATCC-modification-RPMI-1640-medium, Cat. No. A10491-01 (Thermo-Fisher Scientific); and 50% Corning Matrigel, Cat No. 356254 (VWR Scientific)) was injected subcutaneously on the right lateral flank with a syringe with a 25 Ga needle. Mice were randomized on day 0 at a mean tumor volume of 180-183 mm^3, n=8 per group for efficacy and n=4 per group for pharmacodynamics (PD). On day 1, test articles were administered (10 mg/kg) at a volume of 5 mL/kg intravenously every 7 days for 2 cycles for efficacy; a single course of treatment was used for PD assessment. Animals in the PD cohorts were euthanized at 24, 48, 72, and/or 96 hours post-dosing of a single dose, depending on the test article. Tumor volume and body weight were measured one or two times weekly until the termination (day 61) of the study. Tumor volume was calculated using the formula length×width^2/2. […]
(§2) Quantitative PCR from cDNA was performed using TaqMan Gene Expression Master Mix (ThermoFisher Scientific) with transcript probes targeting FBXW5 or TAOK1 junctions duplexed with RPLP0 RNA VIC-PL (ThermoFisher Scientific) and quantified using the ΔΔCt method.
(§3) RT-qPCR of FBXW5 (mature mRNA transcript) and TAOK1 (neojunction transcript) were monitored. […]

[2] = system: FBXW5 (mature mRNA transcript); assay: In vivo PD RT-qPCR in NCI-N87 tumors, FBXW5; parameters: species or system CB17-SCID mice; conditions: 10 mg/kg IV single dose, NCI-N87 xenograft, versus vehicle
Method: as §1, §2, §3

“TDM1: "treated intravenously with vehicle or 10 mg/kg trastuzumab, TDM1, or an exemplary HER2-ADC" [reference compound]” was tested, and the “change in TAOK1 neojunction transcript in tumors” value [1] was “Neither” and the “change in FBXW5 mature mRNA transcript in tumors” value [2] was “Neither”.

— patent US20260158152A1, “SPLICING MODULATOR ANTIBODY-DRUG CONJUGATES AND METHODS OF USE” (EISAI R&D MANAGEMENT CO., LTD., priority 2018, published 2026)
